# Values of other authors as cited in US20140194479A1, “COMPOSITIONS AND METHODS FOR TREATING MOOD DISORDERS” (priority 2011, published 2014).
# System: IMS Balb/c mice
# Conditions: adolescent treatment; Bhansali et al., 2007; cited from earlier work
structure (smiles),measurement,value
CNCCC(Oc1ccc(C(F)(F)F)cc1)c1ccccc1 (stereo not shown) [fluoxetine],abnormal behavior of IMS Balb/c mice in the FST,effectively reversed
